Target: human sEH enzyme (Homo sapiens, UniProt P34913)
Test: sEH human enzyme assay (fluorescence based enzyme in vitro assay)
Conditions: read-out: IC50 [nM] for human sEH enzyme inhibition; recombinant human sEH about 1 nM, fluorescence substrate S7 10 uM, pH7.0, 25° C.
Source text: Preparation of Recombinant sEH Human Enzyme
The DNA for expressing sEH was designed based on a […] sEH cDNA. Necessary Modifications were introduced to optimize for its expression both in E. coli and insect cells. The designed DNA fragment encodes a protein sequence that is identical to full length human sEH, and the DNA was synthesized in vitro. The DNA was then subcloned into the pET100 vector that will generate a fusion protein with an N-terminal His-tag. The recombinant protein was expressed in E. coli. The sEH enzyme was affinity purified by a Ni^++ column. His-tag was removed by Enter Kinase (EK) digestion. The purified enzyme aliquots were frozen and held at −80° C. for later use.
Fluorescence Based Enzyme In Vitro Assay
For each assay (100 ul), an aliquot of enzymes (about 1 nM final concentration) was incubated with a fluorescence substrate, S7 (10 uM final concentration), in sEH assay buffer (25 mM HEPES, pH7.0, 0.1 mg/ml BSA) in a 96-well plate. The kinetic reaction reading (Ex330/Em465) was conducted using a plate reader, Spectra max (Molecular Devices) at 25° C.

Sequences of proteins named here, by UniProt entry; tags and fusion partners are left off.
UniProt P34913, whole entry: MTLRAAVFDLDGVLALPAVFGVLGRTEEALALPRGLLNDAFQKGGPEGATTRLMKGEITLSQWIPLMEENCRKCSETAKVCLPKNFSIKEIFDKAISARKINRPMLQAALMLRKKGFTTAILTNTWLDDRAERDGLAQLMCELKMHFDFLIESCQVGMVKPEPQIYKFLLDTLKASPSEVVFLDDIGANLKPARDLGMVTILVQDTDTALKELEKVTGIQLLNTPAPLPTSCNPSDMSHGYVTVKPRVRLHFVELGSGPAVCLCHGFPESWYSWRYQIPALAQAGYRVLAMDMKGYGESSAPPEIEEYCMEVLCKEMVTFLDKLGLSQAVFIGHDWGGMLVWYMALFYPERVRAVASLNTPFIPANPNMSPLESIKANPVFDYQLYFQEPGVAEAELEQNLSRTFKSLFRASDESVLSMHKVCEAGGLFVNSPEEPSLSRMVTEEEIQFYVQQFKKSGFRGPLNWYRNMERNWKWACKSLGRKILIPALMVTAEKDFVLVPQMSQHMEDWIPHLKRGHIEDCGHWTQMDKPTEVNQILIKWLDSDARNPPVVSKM

Structure (SMILES) | IC50
O=C(Nc1ccc(C(F)(F)F)cc1)N1CCCC(COCc2cc(C(F)(F)F)cc(C(F)(F)F)c2)(c2ccccc2)C1 (centres unmarked) | 28 nM
O=C(Nc1ccc(C(F)(F)F)cc1)N1CCCC(Cc2ccccc2)(C(=O)NCc2ncco2)C1 (centres unmarked) | < 1 nM
